The assay deals with BALB/cJ tail skin graft on VG mice humanized for IL2RG. Nature of the assay: In vivo skin graft rejection model, REGN7257 induction with abatacept maintenance (Example 2). Set-up: species or system mouse. The settings on record: induction: 2 doses 25 mg/kg s.c. (2 days prior and day of transplant); maintenance: 25 mg/kg s.c. 2 times per week from day of transplant until rejection; FIG. 5. An excerpt:
BALB/cJ mice obtained from The Jackson Laboratory (Bar Harbor, ME) were used as skin graft donors, and MHC mismatched Velocigene® (VG) background mice (C57BL/6NTac (75%)/129S6SvEvTac (25%)) from the Regeneron Velocigene® breeding colony that were genetically modified to replace the endogenous IL2RG ectodomain with the corresponding human sequences were used as recipients. The skin graft was obtained from the tail of the donor mice. The skin was the peeled off using forceps and punched with a 10 mm diameter biopsy punch.
As shown in Table 3 below and in FIG. 4, VG mice (humanized for IL2RG), used as graft recipients, were administered no treatment (negative control); or a treatment regimen as follows: • 2 doses of an IgG4 isotype control (REGN1945) or REGN7257 subcutaneously at 25 mg/kg, one dose 2 days prior and one dose the day of the skin transplant (“induction mAb treatment”); and • an IgG1 isotype control (REGN1932) or abatacept subcutaneously at 25 mg/kg at a frequency of 2 times per week starting the day of the transplant, and continuing until rejection (“maintenance mAb treatment”). […]
These grafts will display scabbing and contraction several […] from bandage removal. […] The complete rejection timepoint is recorded as the first day where 100% of the graft tissue was necrotic. Significance was determined by Log-rank (Mantel-Cox) test with Bonferroni correction (α=0.005, k=10).

In the case of abatacept [reference compound], the “skin graft median survival time [MST] (time to complete skin graft rejection)” value was found to be 10 days.

(Values after patent US20260273048A1, “METHODS OF IMPROVING TRANSPLANT SURVIVAL USING IL-2 RECEPTOR GAMMA CHAIN ANTIBODIES” (Regeneron Pharmaceuticals, Inc., priority 2023, published 2026).)
